Experimental findings from US6458784B1, “Vitronectin receptor antagonists” (priority 1995, dated 2002) are described below.

Amino acid sequences for entries named in this document (tags omitted). Residues count along the entry.
UniProt P05106, 27-788: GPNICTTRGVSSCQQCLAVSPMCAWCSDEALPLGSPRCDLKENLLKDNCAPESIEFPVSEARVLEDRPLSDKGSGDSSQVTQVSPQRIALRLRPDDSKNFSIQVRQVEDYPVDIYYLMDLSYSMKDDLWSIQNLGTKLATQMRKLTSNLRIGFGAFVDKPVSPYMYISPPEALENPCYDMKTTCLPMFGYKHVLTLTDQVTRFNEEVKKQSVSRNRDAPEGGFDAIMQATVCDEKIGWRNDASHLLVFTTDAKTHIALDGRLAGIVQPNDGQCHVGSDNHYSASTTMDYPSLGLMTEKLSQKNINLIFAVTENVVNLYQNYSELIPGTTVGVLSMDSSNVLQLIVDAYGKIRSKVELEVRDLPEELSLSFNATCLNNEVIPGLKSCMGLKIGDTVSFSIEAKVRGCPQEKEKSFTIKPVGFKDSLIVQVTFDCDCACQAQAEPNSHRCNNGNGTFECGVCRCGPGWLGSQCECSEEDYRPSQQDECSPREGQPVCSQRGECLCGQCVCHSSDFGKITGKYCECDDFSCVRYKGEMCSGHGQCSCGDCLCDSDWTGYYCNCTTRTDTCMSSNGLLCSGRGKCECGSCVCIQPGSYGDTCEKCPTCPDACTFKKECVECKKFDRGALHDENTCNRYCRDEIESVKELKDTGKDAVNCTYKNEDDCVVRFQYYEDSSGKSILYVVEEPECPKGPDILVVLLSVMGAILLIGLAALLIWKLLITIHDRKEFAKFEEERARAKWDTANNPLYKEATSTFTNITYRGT
UniProt P08514, 32-887 limits assumed: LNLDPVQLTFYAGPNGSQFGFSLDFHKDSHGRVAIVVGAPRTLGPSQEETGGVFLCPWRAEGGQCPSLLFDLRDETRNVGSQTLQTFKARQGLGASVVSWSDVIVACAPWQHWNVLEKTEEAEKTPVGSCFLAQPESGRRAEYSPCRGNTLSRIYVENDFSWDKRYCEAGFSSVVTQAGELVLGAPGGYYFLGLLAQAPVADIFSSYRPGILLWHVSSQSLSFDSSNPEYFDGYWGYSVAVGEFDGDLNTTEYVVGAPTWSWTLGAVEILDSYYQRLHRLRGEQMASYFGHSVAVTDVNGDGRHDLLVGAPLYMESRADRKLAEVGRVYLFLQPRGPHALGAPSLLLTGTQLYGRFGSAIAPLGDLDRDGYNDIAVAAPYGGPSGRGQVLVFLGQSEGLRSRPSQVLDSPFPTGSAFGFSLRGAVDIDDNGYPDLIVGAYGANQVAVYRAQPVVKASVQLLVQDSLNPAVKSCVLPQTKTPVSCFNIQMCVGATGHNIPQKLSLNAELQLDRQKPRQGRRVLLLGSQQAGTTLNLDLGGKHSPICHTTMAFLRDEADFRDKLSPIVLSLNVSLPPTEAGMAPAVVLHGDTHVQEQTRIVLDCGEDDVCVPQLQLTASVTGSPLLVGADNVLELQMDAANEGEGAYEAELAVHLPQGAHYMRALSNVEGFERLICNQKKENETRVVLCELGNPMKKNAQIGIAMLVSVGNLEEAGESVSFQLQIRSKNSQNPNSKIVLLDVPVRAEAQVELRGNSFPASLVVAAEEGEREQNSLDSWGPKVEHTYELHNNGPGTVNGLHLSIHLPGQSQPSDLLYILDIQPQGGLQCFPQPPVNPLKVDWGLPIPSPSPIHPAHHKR
UniProt P08514, 891-1039 partner limits assumed: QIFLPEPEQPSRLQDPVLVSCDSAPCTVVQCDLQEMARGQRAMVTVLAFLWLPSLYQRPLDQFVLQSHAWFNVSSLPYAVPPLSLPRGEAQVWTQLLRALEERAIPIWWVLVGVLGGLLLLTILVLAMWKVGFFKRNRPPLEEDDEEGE
UniProt P06756, 891-1048 partner limits assumed: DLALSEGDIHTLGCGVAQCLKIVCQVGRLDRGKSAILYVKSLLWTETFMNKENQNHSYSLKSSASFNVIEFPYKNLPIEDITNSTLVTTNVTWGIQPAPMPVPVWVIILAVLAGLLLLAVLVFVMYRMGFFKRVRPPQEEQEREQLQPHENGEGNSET
UniProt P06756, 31-889 limits assumed: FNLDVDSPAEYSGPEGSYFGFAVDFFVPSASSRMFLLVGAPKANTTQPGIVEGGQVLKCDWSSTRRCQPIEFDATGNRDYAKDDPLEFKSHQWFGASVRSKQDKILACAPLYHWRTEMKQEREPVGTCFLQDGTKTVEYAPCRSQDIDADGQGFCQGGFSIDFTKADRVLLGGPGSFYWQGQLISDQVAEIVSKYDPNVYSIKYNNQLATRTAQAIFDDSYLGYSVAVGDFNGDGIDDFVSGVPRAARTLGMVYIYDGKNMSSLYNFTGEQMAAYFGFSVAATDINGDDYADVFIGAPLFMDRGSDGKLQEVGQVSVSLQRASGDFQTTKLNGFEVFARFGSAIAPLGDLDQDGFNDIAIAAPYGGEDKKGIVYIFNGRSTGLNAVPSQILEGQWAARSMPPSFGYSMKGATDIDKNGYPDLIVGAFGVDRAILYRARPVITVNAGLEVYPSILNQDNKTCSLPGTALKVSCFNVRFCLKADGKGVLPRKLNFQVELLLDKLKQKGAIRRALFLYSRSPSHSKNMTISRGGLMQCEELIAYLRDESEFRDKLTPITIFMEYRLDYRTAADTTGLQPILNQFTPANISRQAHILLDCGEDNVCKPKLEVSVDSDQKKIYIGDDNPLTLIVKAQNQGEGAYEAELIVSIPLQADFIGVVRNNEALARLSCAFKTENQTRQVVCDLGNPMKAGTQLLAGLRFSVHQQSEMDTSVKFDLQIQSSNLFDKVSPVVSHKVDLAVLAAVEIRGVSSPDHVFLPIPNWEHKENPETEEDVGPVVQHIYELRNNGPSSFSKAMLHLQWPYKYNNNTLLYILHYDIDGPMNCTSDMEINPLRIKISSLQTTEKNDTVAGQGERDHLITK

What is called Ki is a measure of affinity in units of concentration, obtained from inhibition or displacement. A low value points to a stronger hold on the target.

Assay [1] addresses GPIIb-IIIa (fibrinogen receptor, αIIbβ3) (Homo sapiens, UniProt P05106+P08514). Description: Competitive binding to GPIIb-IIIa with [3H]-SK&F-107260 (inhibition of RGD-mediated GPIIb-IIIa binding).
Assay [2] addresses T1, αvβ3 (vitronectin receptor) (Homo sapiens, UniProt P05106+P06756).
T1 construct: Human placenta or human platelet αvβ3 (0.1-0.3 mg/mL) in buffer T; from tissue; host or cells: human placenta or human platelets
Nature of the assay: Solid-phase [3H]-SK&F-107260 binding to αvβ3 (inhibition of vitronectin binding). The procedure: Inhibition of Vitronectin Binding
0.1-0.2 μg of αvβ3 was added per well. The plates were incubated overnight at 4° C. […] Following incubation the wells were aspirated completely and washed twice with 0.2 mL buffer A.
This solution is then diluted to the required final compound concentration.
The plates were incubated for 1 hr at room temperature. Following incubation the wells were aspirated completely and washed once with 0.2 mL of ice cold buffer A in a well-to-well fashion.

Regarding `CN1Cc2cc(C(=O)Nc3cccc(N)n3)ccc2CC(CC(=O)O)C1=O` (racemic) [Example 2, (±)-8-[[(6-amino-2-pyridinyl)amino]carbonyl]-2-methyl-3-oxo-2,3,4,5-tetrahydro-1H-2-benzazepine-4-acetic acid], the values for the Ki in assay [1] and in assay [2] were above 50 µM and 0.65 µM, respectively.
As to `CC(=O)N1c2ccc(C(=O)Nc3cccc(N)n3)cc2CN(C)C(=O)C1CC(=O)O` (racemic) [Example 4, (±)-1-Acetyl-7-[[(6-amino-2-pyridinyl)amino]carbonyl]-4-methyl-3-oxo-2,3,4,5-tetrahydro-1H-1,4-benzodiazepine-2-acetic acid], the Ki in assay [1] is above 100 µM; in assay [2] it was 15.1 µM.
